{"source": "patent US20240425630A1", "about": "“POLYMER DISPERSION COMPOSITION” (Dow Global Technologies LLC, priority 2021, published 2024)", "origin": "cited, not measured here", "details": "literature data (footnotes of Table II); cited from earlier work"}
{"substance": "Glycolic acid ethoxylate lauryl ether", "values": [{"measurement": "pKaH", "result": 4.0}]}
{"substance": "Glycolic acid ethoxylate oleyl ether", "values": [{"measurement": "pKaH", "result": 3.68}]}
